Test results from US20060167271A1, “Purified compounds that inhibit intracellular alphax4/paxillin binding” (priority 2002, published 2006).

Amino acid sequences for entries named in this document (tags omitted). Residues count along the entry.
UniProt P13612, 1002-1032 limits assumed: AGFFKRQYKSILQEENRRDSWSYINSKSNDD
UniProt P49023, 1-557 isoform 2: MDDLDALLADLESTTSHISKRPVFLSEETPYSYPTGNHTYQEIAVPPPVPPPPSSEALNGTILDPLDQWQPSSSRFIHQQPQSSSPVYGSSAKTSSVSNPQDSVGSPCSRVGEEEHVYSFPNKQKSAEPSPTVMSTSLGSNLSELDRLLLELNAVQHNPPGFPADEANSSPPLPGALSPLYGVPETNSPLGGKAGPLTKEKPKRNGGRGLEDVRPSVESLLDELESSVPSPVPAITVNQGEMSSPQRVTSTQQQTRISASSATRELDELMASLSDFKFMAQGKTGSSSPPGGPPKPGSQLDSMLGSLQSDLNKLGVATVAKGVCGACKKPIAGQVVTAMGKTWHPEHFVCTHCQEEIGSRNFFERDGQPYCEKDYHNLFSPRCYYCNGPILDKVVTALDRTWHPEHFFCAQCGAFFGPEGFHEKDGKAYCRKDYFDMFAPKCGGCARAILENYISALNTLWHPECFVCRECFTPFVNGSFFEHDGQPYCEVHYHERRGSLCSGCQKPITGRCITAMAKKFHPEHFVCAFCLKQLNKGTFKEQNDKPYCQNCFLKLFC

Target: Paxillin/α4 binding (immobilized His-tagged α4 tail, soluble recombinant Paxillin) (Homo sapiens, UniProt P13612+P49023)
Test: Immobilized Paxillin/α4 binding assay (ELISA)
Settings: for Inhibition (%) of α4/Paxillin Binding by Deconvoluted Samples of 11-AxByCz: 1 μM; for IC50: read-out: Inhibition of α4/Paxillin Binding by Deconvoluted Samples of 11-AxByCz (IC50)
Experimental: FIG. 4 is a schematic representation of the high throughput screening by ELIZA used herein in which the α4 tail is coated onto a Ni-NTA microtiter plate (a), Paxillin is permitted to bind to α4 (b), first antibody is added (anti-Paxillin) (c), second antibody is added (HRP-conjugated, anti-mouse) (d), and Pax/α4 binding efficiency is measured by detection at 490 nm (e). For binding inhibition, compounds were added during Paxillin incubation (step b). […], zero % inhibition was measured from incubation with Paxillin and no compound.
Initially, roughly 40,000 compounds were screened in approximately 2000 wells (most as a mixture of 10 compounds, 50 μM total concentration) in an ELISA assay using an immobilized His-tagged α4 tail [Pfaff et al. (1998) J. Biol. Chem. 273, 6104-6109] and examining the binding inhibition of soluble recombinant Paxillin [Salgia et al. (1995) J. Biol. Chem. 270, 5039-5047] (FIG. 3).
Paxillin/α4 binding assays were performed as follows. Ni-NTA HisSorb microtiter strips (Qiagen) were coated overnight at 4° C. with purified α4 tail integrin (5 μg/ml, 100 μl per well) in PBS buffer (8 mM Na2HPO4, 1.5 mM KH2PO4, 135 mM NaCl, 2.5 mM KCl [pH 7.4]) supplemented with heat-denatured BSA (0.2%). The plates were washed three times with PBS buffer to remove unbound integrin, blocked with 150 μl of heat-denatured 1% BSA (denatured at 85° C. for 30 minutes and supplemented with 0.05% sodium azide) for 1 hour at room temperature, and washed again three times with PBS buffer.
Purified Paxillin in binding buffer (10% DMSO, 0.2% BSA in PBS buffer) was added to the wells at a concentration of 5 μg/ml in the presence or absence of compounds (1 mM DMSO stock solutions). […] As a control, blocked wells without integrin were examined for binding. After 1 hour at room temperature, the wells were washed three times with PBS buffer, incubated with first antibody (12CA5 ascites, 1/10000 in PBS plus 1% BSA, 100 μL) for 1 hour at room temperature, then with second antibody (100 μl HRP-conjugated anti-mouse [Biosource] in PBS buffer plus 1% BSA) for 1 hour at room temperature. Each well was treated with 50 μl of substrate solution (4 mg o-phenylenediamine, 4 μl of 30% H2O2, 80 mM citrate phosphate [pH 5]) and stopped after 10 minutes at room temperature with 50 μl H2SO4 (2 N). Binding was quantitated on a vmax kinetic microplate reader (Molecular Devices) at 490 nm. Zero % inhibition control was measured with Paxillin and no compound, and 100% inhibition control (background) was measured with no Paxillin and no compound. Each well was duplicated and percent inhibition was averaged.

Inhibition (%) of α4/Paxillin Binding by Deconvoluted Samples of 11-AxByCz [%] | IC50 [nM] | SMILES
66 | 2200 | COC(=O)c1cc2c3c(ccc2[nH]1)N(C(=O)c1cc2c4c(ccc2[nH]1)N(C(=O)c1cc(NC(=O)CCCN(C)C)cn1C)CC4)CC3
76 | 400 | COC(=O)c1cc2c3c(ccc2[nH]1)N(C(=O)c1cc2c4c(ccc2[nH]1)N(C(=O)c1cc(NC(=O)CCCN(C)C)cs1)CC4)CC3
81 | 400 | COC(=O)c1cc2c3c(ccc2[nH]1)N(C(=O)c1cc2c4c(ccc2[nH]1)N(C(=O)c1cc2cc(NC(=O)CCCN(C)C)ccc2o1)CC4)CC3
58 | 1400 | COC(=O)c1cc2c3c(ccc2[nH]1)N(C(=O)c1cc2c4c(ccc2[nH]1)N(C(=O)c1cccc(NC(=O)CCCN(C)C)c1)CC4)CC3
74 | 700 | COC(=O)c1cc2c3c(ccc2[nH]1)N(C(=O)c1cc2c4c(ccc2[nH]1)N(C(=O)c1cc2cc(NC(=O)CCCN(C)C)ccc2s1)CC4)CC3
74 | 500 | COC(=O)c1cc(NC(=O)c2cc3c4c(ccc3[nH]2)N(C(=O)c2cc3c5c(ccc3[nH]2)N(C(=O)CCCN(C)C)CC5)CC4)cn1C
80 | 400 | COC(=O)c1cc2c3c(ccc2[nH]1)N(C(=O)c1cc2c4c(ccc2[nH]1)N(C(=O)c1csc(NC(=O)CCCN(C)C)n1)CC4)CC3
63 | 4800 | COC(=O)c1cc2c3c(ccc2[nH]1)N(C(=O)c1cc2c4c(ccc2[nH]1)N(C(=O)c1cc2cc(NC(=O)CCCN(C)C)ccc2[nH]1)CC4)CC3
70 | 600 | COC(=O)c1cc2c3c(ccc2[nH]1)N(C(=O)c1cc2c4c(ccc2[nH]1)N(C(=O)c1ccc(NC(=O)CCCN(C)C)cc1)CC4)CC3
68 | 500 | COC(=O)c1cc2c3c(ccc2[nH]1)N(C(=O)c1cc2c4c(ccc2[nH]1)N(C(=O)c1nc(NC(=O)CCCN(C)C)cn1C)CC4)CC3
